Assay results taken from patent US20060264419A1 (priority 2003, published 2006).

Amino acid sequences for entries named in this document (tags omitted).
UniProt P14842, whole entry: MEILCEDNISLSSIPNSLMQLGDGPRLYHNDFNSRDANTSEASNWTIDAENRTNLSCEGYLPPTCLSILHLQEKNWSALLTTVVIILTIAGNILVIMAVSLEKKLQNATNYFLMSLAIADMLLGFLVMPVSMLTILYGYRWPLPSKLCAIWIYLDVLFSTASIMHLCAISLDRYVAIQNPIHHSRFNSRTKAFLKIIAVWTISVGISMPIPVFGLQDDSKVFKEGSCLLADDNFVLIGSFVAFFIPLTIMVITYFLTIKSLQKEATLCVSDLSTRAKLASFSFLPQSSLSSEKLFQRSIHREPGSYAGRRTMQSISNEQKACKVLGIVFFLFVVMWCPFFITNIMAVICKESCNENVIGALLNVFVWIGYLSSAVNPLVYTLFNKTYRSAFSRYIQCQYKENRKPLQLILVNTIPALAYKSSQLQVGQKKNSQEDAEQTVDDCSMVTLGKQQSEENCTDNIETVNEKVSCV

Each molecule was assayed against 5-HT2A receptors (Rattus norvegicus, UniProt P14842) (assay: in-vitro affinity to 5-HT2A receptors, displacement of [3H]ketanserine (Example A1)). Settings: target not given; description names affinity to 5-HT2A receptors.
Assay type: binding
Description: The 5-HT2A receptors are exposed both to [^3H]ketanserine (a substance which is known for its affinity to the receptor) and also to the test compound. The decrease in the affinity of [^3H]ketanserine to the receptor is an indication of the affinity of the test substance to the 5-HT2A receptor.

IC50 [µM] | Molecule
0.63 | Fc1ccc(-c2ccc(-n3ncc(CNc4cccnc4)c3-c3ccccc3F)cn2)cc1 [(175), {5-(2-Fluorophenyl)-1-[6-(4-fluorophenyl)pyridin-3-yl]-1H-pyrazol-4-ylmethyl}pyridin-3-ylamine]
0.63 | NC(=O)c1[nH]cnc1NCc1cnn(-c2ccc(-c3ccccc3)cc2)c1-c1ccccc1F [(186), 5-{[1-Biphenyl-4-yl-5-(2-fluorophenyl)-1H-pyrazol-4-ylmethyl]-amino}-3H-imidazole-4-carboxamide]

Molecule | IC50 [µM]
{4-[1-Biphenyl-4-yl-5-(2-fluorophenyl)-1H-pyrazol-4-ylmethyl]-piperazin-1-yl}- [(75)] | 0.63
